# ClpP mod = qHTS Assay for Activators of ClpP | ATP-dependent Clp protease proteolytic subunit (Bacillus subtilis (strain 168)), P80244 | purified B. subtilis ClpP, FRET peptide cleavage, 20 min | hit rate 1.9% among 340,000 | Potency, µM (top dose mostly 57.5 µM), without a hit: at the highest dose activity change, negative = active; active = well fitted falling curve with a large enough effect; inconclusive = small, poorly fitted or top-dose-only effect; inactive = no such curve, though single readings can be large or run the other way; also: potency is read from the fitted curve at half-maximal effect; the source files actives as falling curves though it sought activators and does not explain the sign; nearly all actives have a fitted effect of over 65% in size
#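 Buffer: 100 mM Tris/HCl pH8, 100 mM KCl, 0.05% low protease BSA, 2.5% glycerol, 0.01% Tween-20. ClpP 10 microg/mL final; 20 min RT; delta FRET normalized to ADEP and DMSO controls.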
# Nrf2 activator = activators of Nrf2 (ARE) signaling. AREc32 ARE-luciferase reporter (MCF7-derived line), luminescence, 24 h. Potency, µM (doses to about 46.1 µM), for the others: at the highest dose activation, usual class: activators. hit rate 0.31% among 410,000; also: potency is read from the fitted curve at half-maximal effect; % of control where 0% means no effect; nearly all actives have a fitted effect of over 65% in size
#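 Each well held 1000 AREc32 cells, which were incubated with compound for 24 hr at 37 deg C after overnight attachment, and ARE reporter activity was quantified by firefly luciferase luminescence.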
# A549 viability = kills or reduces viability of A549 cells in Nrf2 counter-screen; A549 ARE-Fluc cells, CellTiter-Fluor viability, 18-24 h; Potency, µM (series often up to 46 µM), for the others: at the highest dose activity change, negative = cytotoxicity, usual class: inhibitors; hit rate 0.16% among 390,000; also: potency is read from the fitted curve at half-maximal effect; % is scaled to controls: 0 for no effect and ±100 for the full control effect
#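 Cytotoxicity counterscreen: CellTiter-Fluor fluorescence was measured in A549 ARE_Fluc cells after 18-24 h of compound exposure in a concentration series. The subsequent BugLite luminescent read reports ARE-luciferase activity.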
# p53 reactivation = mutant p53 re-activation in reporter cells; H1299 p53-A138V BP100-luciferase reporter, luminescence, 24 h; Potency, µM (top dose mostly 92.2 µM), without a hit: top-dose activity change, positive = activation, actives largely listed as activators; hit rate 0.063% among 320,000; AID 504706; also: potency is read from the fitted curve at half-maximal effect; % of control where 0% means no effect; nearly all actives have a fitted effect of over 45% in size
#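 H1299 (p53-null), stable ts p53-A138V + BP100-Luc; 1000 cells/well, Opti-MEM/10% FBS; cpd 4 pt, 1:5; 24 h, 37 deg C, 5% CO2; detection reagent 10 min RT; luminescence.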
# Nrf2 block = blocks Nrf2 signaling | Potency, µM (series often up to 46 µM), without a hit: at the top dose activity change, negative = inhibition, hits mostly inhibitors | hit rate 2.1% among 360,000 | A549 ARE-Fluc reporter, luciferase luminescence, 18-24 h; also: potency is read from the fitted curve at half-maximal effect; % is scaled to controls: 0 for no effect and ±100 for the full control effect; nearly all actives have a fitted effect of over 60% in size
#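 Nrf2 function is reported as luminescence of an ARE-controlled luciferase in A549 cells. Compounds were tested at several concentrations, and a CellTiter-Fluor read on the same wells flagged cytotoxicity.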
# miR-21 reporter = miR-21 reporter, rising signal | HeLa miR-21 FLuc reporter, luciferase, 48 h | Potency, µM (doses to about 38.3 µM), inactives show at the top dose reporter change, positive = more light | 340,000 tested, under 10 active | AID 2288; active = well fitted rising curve with a large enough effect; inconclusive = small, poorly fitted or top-dose-only effect; inactive = no such curve, though single readings can be large or run the other way;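 note: % of control where 0% means no effect; miR-21 action dims this reporter so a rising signal means less miR-21 action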
#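 Using DMEM plus 10% FBS, HeLa miR-21-FLuc cells are incubated with test compounds (final up to about 40uM) for 48 hours; firefly luciferase signal is then imaged following reagent-mediated lysis.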
# * hit, by the source's call; ? = inconclusive; · = no result; [ ] = dose if it differs, or a comment. This is a sample that favours compounds with a hit; in the whole collection about 3.7% have one here. Unless noted, calls follow the shape of the dose curve; as a rule, active = well fitted curve in the direction sought with a large enough effect; inconclusive = small, poorly fitted or top-dose-only effect, or another doubt; inactive = no such curve, though single readings can be large; an effect the other way counts as inactive or inconclusive.
SMILES | ClpP mod | Nrf2 activator | A549 viability | p53 reactivation | Nrf2 block | miR-21 reporter
CC1Cc2ccccc2N1C(=O)CSc1nnc(-c2ccccc2Cl)o1 (stereo not given) | -2% | 1.8µM* | 0% | · | -29% | 4%
CCOC(=O)C1CCN(C(=O)c2nn(-c3ccc(OC)c(Cl)c3)c(=O)c3c2c2ccccc2n3C)CC1 | ? | 5% | -6% | · | 11% | 14%
N#Cc1c(N)nc2c3c(sc(=N)c2c1N)NC(=O)CC3c1ccccc1 (stereo not given) | -17% | 5% | -5% | 4% | 10% | -3%
Cc1c(C#N)c(N)nc2c3c(sc12)NC(=O)CC3c1ccc(Cl)cc1 (stereo not given) | 16µM* | 0%[9.22 µM] | -8% | -10% | -29% | -27%
Cc1cccc(-c2nnn3c2nc(NCCc2ccc(S(N)(=O)=O)cc2)c2ccccc23)c1 | 11µM* | 4% | 0% | 1% | 21% | -5%
NS(=O)(=O)c1ccc(CCNc2nc3c(-c4cccc(F)c4)nnn3c3ccccc23)cc1 | 22µM* | 4% | -3% | ? | -1% | -3%
Cc1ccc(-c2nnn3c2nc(NCCc2ccc(S(N)(=O)=O)cc2)c2ccccc23)cc1 | 1% | 6% | 9% | -12% | 5% | -2%
Cc1ccc(-n2nnnc2CNC(=O)c2ccccc2S(C)(=O)=O)cc1C | 1% | -1% | 3% | · | · | -6%
CCc1ccc(NC(=O)c2nn(-c3ccc(OC)cc3)c(=O)c3c2c2ccccc2n3C)cc1 | ? | 0% | 0% | · | ? | 4%
Cc1cc(C)cc(Cn2ncc3c4sc(C)cc4n(C)c3c2=O)c1 | · | · | -11% | · | 4% | ·

# Profiles, looked up by structure. Screens in order: ClpP mod	Nrf2 activator	A549 viability	p53 reactivation	Nrf2 block	miR-21 reporter
# NS(=O)(=O)c1ccc(CCNc2nc3c(-c4cccc(F)c4)nnn3c3ccccc23)cc1 reads 22µM*	4%	-3%	?	-1%	-3%
# CC1Cc2ccccc2N1C(=O)CSc1nnc(-c2ccccc2Cl)o1 (stereo not given) reads -2%	1.8µM*	0%	·	-29%	4%
# CCc1ccc(NC(=O)c2nn(-c3ccc(OC)cc3)c(=O)c3c2c2ccccc2n3C)cc1 reads ?	0%	0%	·	?	4%
# Cc1cc(C)cc(Cn2ncc3c4sc(C)cc4n(C)c3c2=O)c1 reads ·	·	-11%	·	4%	·

# Additional compounds follow.
SMILES | ClpP mod | Nrf2 activator | A549 viability | p53 reactivation | Nrf2 block | miR-21 reporter
COc1ccccc1C(=O)Nc1c(C(=O)Nc2ccccc2F)oc2ccccc12 | 3% | -1% | 1% | · | 2% | 11%
O=C(O)c1ccc(CNCc2ccc(Cl)cc2)s1 | -1% | 0% | 0% | · | -2% | -1%
Fc1ccc(Nc2nc(NCc3ccco3)c3ccccc3n2)cc1 | 4% | -1% | -11% | 5% | 18µM* | 29%
COc1ccc(CCNC(=O)c2ccc3c(c2)CCN3S(=O)(=O)c2ccccc2)cc1 | 0% | 6% | -17% | · | ? | ?
CCCCn1c(=O)nc2n(-c3ccc(F)cc3)c3ccccc3cc-2c1=O | 5% | 1% | 1% | · | 0% | -5%
CCN(CC)c1ccc(/C=C/c2cccc[n+]2C)c(OC)c1 | · | 3% | 7.3µM* | -4% | 5.8µM* | ?
Cc1nc(Cl)sc1C(=O)Nc1ccccc1Cl | -2% | ? | -5% | · | -3% | -3%
COc1ccccc1NC(=O)c1sc(Cl)nc1C | 2% | 11µM* | -3% | -62% | 6% | -6%
CC(/C=N/n1c(-c2ccc(Cl)cc2)n[nH]c1=S)=C\c1ccco1 | 1% | 2.8µM* | -7% | -3% | 13% | 7%
CC(/C=N/n1cnnc1)=C\c1ccco1 | -3% | 11µM* | -1% | -9% | 12% | -9%
CCOc1ccc(C2c3c(oc4ccc(C)cc4c3=O)C(=O)N2c2nc(C)c(C)s2)cc1OC (stereo not given) | -1% | 0% | -3% | · | 7% | -6%
COC(=O)c1cc2c(n1S(=O)(=O)c1ccc(C)cc1)C(=O)C(=O)c1[nH]cc(C(=O)OCc3ccccc3)c1-2 | 2% | -2% | 4.1µM* | · | 4.1µM* | ·
CC(C)c1ccc(CNc2n[nH]c(-c3ccco3)n2)cc1 | -7% | 1% | 8% | · | ? | -61%
COc1ccc2cc(C(=O)NCc3ccco3)c(=Nc3ccc(C(=O)O)cc3)oc2c1 | 20µM* | 3% | -19% | ? | -4% | 1%
COc1ccc2oc(=Nc3ccc(C(=O)O)cc3)c(C(=O)NCc3ccco3)cc2c1 | -2% | 5% | -4% | 4% | -12% | 0%
